This is a selection; strong and weak results do not stand in their true shares. Some of these compounds have results that are not shown, active ones among them. Records with an inconclusive call do not appear. Activity calls are given as the source filed them. Calls come from the whole dose curve; as a rule, active = well fitted curve in the direction sought with a large enough effect; inconclusive = small, poorly fitted or top-dose-only effect, or another doubt; inactive = no such curve, though single readings can be large; an effect the other way counts as inactive or inconclusive.
Columns and labels:
[1] = target: ATP-dependent 6-phosphofructokinase (Trypanosoma brucei brucei) (UniProt O15648); assay: qHTS Assay to Find Inhibitors of T. brucei phosphofructokinase: hit validation (AID 492961);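 note: luminescence reports ADP formed as PFK phosphorylates fructose-6-phosphate with ATP; % is set by controls: 0 for no effect and ±100 for the full control effect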; conditions: T. brucei PFK, ADP-Glo luminescence; at 51.4 µM (top of the series)
In short: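 Measures ADP output of PFK (1.25 nM) at 0.1 mM ATP, 0.5 mM F6P, pH 8.0 TEA buffer with 5 mM MgCl2. No-enzyme wells define full inhibition; uninhibited enzyme wells define zero.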

The chains behind the UniProt entries cited, without tags or fusion partners.
UniProt O15648, whole entry: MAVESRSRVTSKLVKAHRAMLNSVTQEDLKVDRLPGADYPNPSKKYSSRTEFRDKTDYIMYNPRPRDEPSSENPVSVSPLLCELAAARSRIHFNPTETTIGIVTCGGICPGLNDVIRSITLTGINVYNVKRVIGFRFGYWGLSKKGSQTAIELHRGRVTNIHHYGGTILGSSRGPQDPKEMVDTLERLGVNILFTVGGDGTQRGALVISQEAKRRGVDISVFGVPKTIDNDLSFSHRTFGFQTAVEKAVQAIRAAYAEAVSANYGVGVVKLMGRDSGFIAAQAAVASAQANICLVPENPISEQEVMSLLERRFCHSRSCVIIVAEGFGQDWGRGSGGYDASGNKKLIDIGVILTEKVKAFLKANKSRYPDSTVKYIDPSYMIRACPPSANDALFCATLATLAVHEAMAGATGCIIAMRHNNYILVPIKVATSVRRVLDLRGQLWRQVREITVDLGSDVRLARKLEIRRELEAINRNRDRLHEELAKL

[2] = tested on: 3D7; assay: qHTS profiling for inhibitors of Plasmodium falciparum proliferation (AID 504749); note: nearly all actives have a fitted effect of over 60% in size; note: potency is the fitted concentration of half-maximal effect;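 for activity, negative = inhibition: 0% = DMSO vehicle and full inhibition = artemisinin control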; conditions: P. falciparum in erythrocytes, SYBR Green DNA, 72 h; at 28.7 µM (top of the series)
In short: (§1)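 Infected RBCs, 0.3% parasitemia/2.5% Hct final; cpd 72 h, 37 C, 5% CO2; lysis buffer with saponin/triton/SYBR Green I, o/n RT dark; FI 485/535; norm. to artemisinin (0.29 uM) and DMSO.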

[3] = tested on: 7G8; assay: as above; conditions: P. falciparum in erythrocytes, SYBR Green DNA, 72 h
In short: as §1

[4] = tested on: AA1029; assay: as above; conditions: P. falciparum in erythrocytes, SYBR Green DNA, 72 h
In short: as §1

[5] = tested on: CP237; assay: as above; conditions: P. falciparum in erythrocytes, SYBR Green DNA, 72 h
In short: as §1

[6] = tested on: CP256; assay: as above; conditions: P. falciparum in erythrocytes, SYBR Green DNA, 72 h
In short: as §1

[7] = tested on: CP260; assay: as above; conditions: P. falciparum in erythrocytes, SYBR Green DNA, 72 h
In short: as §1

[8] = tested on: CP262; assay: as above; conditions: P. falciparum in erythrocytes, SYBR Green DNA, 72 h; at 28.7 µM (top of the series)
In short: as §1

[9] = tested on: DIV14; assay: as above; conditions: P. falciparum in erythrocytes, SYBR Green DNA, 72 h
In short: as §1

[10] = tested on: ECU; assay: as above; conditions: P. falciparum in erythrocytes, SYBR Green DNA, 72 h; at 28.7 µM (top of the series)
In short: as §1

[11] = tested on: FAB9; assay: as above; conditions: P. falciparum in erythrocytes, SYBR Green DNA, 72 h; at 28.7 µM (top of the series)
In short: as §1

[12] = tested on: JCK; assay: as above; conditions: P. falciparum in erythrocytes, SYBR Green DNA, 72 h; at 28.7 µM (top of the series)
In short: as §1

[13] = tested on: P93_24; assay: as above; conditions: P. falciparum in erythrocytes, SYBR Green DNA, 72 h
In short: as §1

[14] = tested on: P94_40; assay: as above; conditions: P. falciparum in erythrocytes, SYBR Green DNA, 72 h
In short: as §1

[15] = tested on: PC15; assay: as above; conditions: P. falciparum in erythrocytes, SYBR Green DNA, 72 h; at 28.7 µM (top of the series)
In short: as §1

[16] = tested on: PC49; assay: as above; conditions: P. falciparum in erythrocytes, SYBR Green DNA, 72 h; at 28.7 µM (top of the series)
In short: as §1

[17] = tested on: TAB109; assay: as above; conditions: P. falciparum in erythrocytes, SYBR Green DNA, 72 h
In short: as §1

[18] = tested on: W2; assay: as above; conditions: P. falciparum in erythrocytes, SYBR Green DNA, 72 h
In short: as §1

CN1CCCC(OC(=O)C(O)(c2ccccc2)c2ccccc2)C1 (stereo not drawn)
inactive: activity change, negative = inhibition [1] 0% | activity, negative = inhibition [2] -29.5% | activity, negative = inhibition [8] 0% | activity, negative = inhibition [10] -27.7% | activity, negative = inhibition [11] -18.5% | activity, negative = inhibition [12] -17.4% | activity, negative = inhibition [15] -16.6% | activity, negative = inhibition [16] -24.7%
active: Potency [3] 4.47 µM | Potency [4] 3.55 µM | Potency [5] 8.91 µM | Potency [6] 5.62 µM | Potency [7] 10 µM | Potency [9] 7.57 µM | Potency [13] 3.98 µM | Potency [14] 12.6 µM | Potency [17] 2.51 µM | Potency [18] 3.79 µM

From PubChem BioAssay (NCATS)
